Apparent affinities of Ab-14 variants for a coronavirus HR2 peptide

The target is the same throughout: PDVDLGDISGINAS, from the HR2 region of SARS-CoV-2 spike.

Parent: Ab-14, a human scFv built as VH, three GGGGS repeats, VL. Only the CDRs of the heavy chain vary.
VH: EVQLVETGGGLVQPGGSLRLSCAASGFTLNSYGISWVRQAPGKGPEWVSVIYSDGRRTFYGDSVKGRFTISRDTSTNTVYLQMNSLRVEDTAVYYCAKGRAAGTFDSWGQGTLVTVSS
VL: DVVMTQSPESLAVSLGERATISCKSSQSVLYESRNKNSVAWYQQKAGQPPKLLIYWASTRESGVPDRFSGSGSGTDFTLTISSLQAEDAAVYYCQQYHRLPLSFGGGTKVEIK

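The parent was found by panning a naive human phage display library on the peptide. These sequences belong to a second round, designed from the earlier measurements on random variants of the parent. Group labels follow the data file (Ctrl: baseline library sampled from a position-specific scoring matrix, with some repeated check sequences; Rand: our label for a block that the file lists under HC and that is probably the random mutants of the ten best first-round binders; En: ensemble of fine-tuned language models; GP: Gaussian process model; GPLM: also part of the Gaussian process libraries; HC: hill climbing; Gen: genetic algorithm; Gibbs: Gibbs sampling; a sequence that several methods proposed may carry one label only). Affinity was read by AlphaSeq, a pooled yeast mating assay with surface-displayed partners. Mating (16 h, 30 °C) was followed by selection of diploids and sequencing of their barcodes. Each replicate has its own calibration line, from reference interactions of the BCL2 family. The assay was run in six technical replicates.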

Each variant is given by its three heavy chain CDRs, as the data file delimits them; those of the parent are GFTLNSYGIS, VIYSDGRRTFYGDSVK, GRAAGTFDS.
The Kd shown is the geometric mean over detected replicates; a lower Kd is a better binder.
A pair that was not seen in any replicate is written "no signal"; this usually means weak binding, but a binder can also be missed.

CDR-H1	CDR-H2	CDR-H3	group	Kd	replicates with signal
GFNLNSYGIS	VIYSDGRRTFYADKVK	GREAGTFDS	GP_Gen	1.2 nM	6/6
GFDLNSYGIS	VIYSDGRRTFYGDSVK	GRAAVTFDK	Ctrl	no signal	0/6
GFDLNEYGIS	VIYADGRRTAYADSVK	GNEAGTFDL	En_Gen	260 pM	6/6
GENLDEYGIS	VIYADGVRSQYTDQVK	GVETGAVLD	En_Gibbs	250 nM	4/6
GFDLNSYGIS	VIYSDGRRTAYTDSFK	GRAAGTFDS	Ctrl	no signal	0/6
GFDLNSYGIS	VIYSDGRRTFYADEVK	GRTAGTFDS	GP_Gen	620 pM	6/6
GFELNSYGIS	VIYSDGRRTFYVDSVK	GNAAGTFDT	GP_Gibbs	2.5 nM	6/6
GFTLNSYGIS	VIYSDGRRTFYADSVK	GQMAGTFDM	Ctrl	29 nM	4/6
GFTLNQYGIS	VIYSDGIRTFYGDSVK	GRAAGTFDS	Ctrl	4.1 nM	6/6
GFDLNEYGVS	VIYADGTRTQYTNKVK	GGFSYASTV	En_Gibbs	no signal	0/6
GFNLNSFGIS	VIYSDGRRKFYHDSVK	GRAAGTIDS	Ctrl	no signal	0/6
GFSLNSYGIS	VIYSDGRRTFYGDDVK	GKAAGTFDS	GPLM_Gen	4.3 nM	6/6
GFDFNSYGIS	VIYSDGRRTFYGDSNK	GRAAGWFNS	Rand	no signal	0/6
GFDLDEYGIS	VIYADGRRTAYQDSVK	GNVAGTFDV	En_HC	290 pM	6/6
GFDINEYGIS	VIYADGMRQAVSQNVK	GNINQFDAV	En_Gibbs	no signal	0/6
GFTLNEYGIS	VIYSDGRRTFYLDSVK	GRAAVTFDQ	Rand	no signal	0/6
GDDLEEYGVS	VIYADGRRSSYANSVK	GAIRGTFDS	En_Gibbs	no signal	0/6
GFTLNSYGIS	VIYSDGKRTFYIDSVK	GQAAGTFDV	GP_Gibbs	13 nM	2/6
GFTGNDYGAS	VIYSDGRRTFYGDSVK	GRAALHFIS	Rand	no signal	0/6
GFTLDSYGIS	VIYSDGRRTFYIDSVK	GRAAGTFWS	GP_HC	120 nM	4/6
GFTLNEYGIS	VIYSDGRRTMYGDFVK	GRAAGTFDS	Ctrl	15 nM	6/6
GFTLNSYGIS	VIYSDGRRTAYADSVK	GRAAGTFDS	GPLM_Gibbs	5.3 nM	6/6
GFELNSYGIS	VIYSDGRRTFYIDSVK	GWAAGTFDK	GP_Gibbs	5.5 nM	3/6
GFELNSYGIS	VIYSDGKRTFYGDSVK	GKAAGTFDV	GP_Gibbs	1.6 nM	6/6
GFSLNEYGIS	VIYSDGRRTFYADSVK	GPAAGTFDR	GP_HC	no signal	0/6
GFNLNSYGIS	VIYSDGRRTFYSDSVK	GRTAGTFDS	GPLM_Gen	1.2 nM	6/6
GFDLNSYGIS	VIYSDGRRTFYGDQVK	GRTAGTFDK	GP_Gen	6.0 nM	6/6
GFDLNSYGIS	VIYSDGRRTVYGDQVK	GRTAGTFDS	GP_Gibbs	300 pM	6/6
GFSLNEYGIS	VIYSDGRRTFYGDSVK	GPAAGTFDK	GPLM_Gen	56 nM	1/6
GFTLNQYGIS	VIYEHGTRTFYSDSVK	GRIAGFFDS	Rand	no signal	0/6
GFTLNDYGIS	VIYSDGRRTFYGDSVK	GRYAGTFIS	GPLM_HC	no signal	0/6
GFSLNSYGIS	VIYSDGRRTFYGDSVK	GKIAGTFDS	GPLM_Gen	3.7 nM	6/6
GFNLNEYGIS	VIYADGHRRYYVDNVK	GHLGGTFSM	En_Gibbs	6.5 nM	3/6
GFDLLEYGIS	VIYADGMRVAYAKDVK	GMFGIFTVD	En_Gibbs	no signal	0/6
GFDLQEYGIS	VIYADGSRVVYQEKVK	GFSAGNFDT	En_Gibbs	no signal	0/6
GFTLNSYGIS	VIYADGRRTFYGDSVK	GPAAGTFDS	Ctrl	1.1 nM	6/6
GFDLDEYGIS	VIYADGRRTFYSDSVK	GQTAGTFDV	En_HC	330 pM	6/6
GFDLNEYGIS	VIYADGRRTFYIDSVK	GETAGTFDQ	En_HC	140 pM	6/6
GFDLNEYGIS	VIYADGMRKAYADSVK	GNNAGTFDQ	En_Gen	580 pM	6/6
GFTLNSYGIS	VIYSDGRRTFYGDFVK	GRIAGTFDW	Ctrl	no signal	0/6
GFKIEEYGIS	VIYADGQRMMYASNFK	GKIAGTFNL	En_Gibbs	3.5 nM	6/6
GFTLNSYGIS	VIYSDGRRTSYGDSVK	GRAAGTFVS	Ctrl	no signal	0/6
GFDLNEYGIS	VIYADGRRTFYADSVK	GQAAGTFDQ	En_HC	550 pM	6/6
GFTLNDYGIS	VIYSDGRRTFYGDSVK	GRSAGTFDK	GP_HC	43 nM	1/6
GFDLNEYGIS	VIYADGMRTFYADDVK	GENAGTFDT	En_Gen	220 pM	6/6
GFSLNSYGIS	VIYSDGRRTFYGDSVK	GEAAGTFDD	GPLM_Gen	11 nM	6/6
GFTLNQYGIS	VIYSDGRDVFYSISVK	GRAAGFQDS	Rand	no signal	0/6
GFTLNEYGIS	VIYADGRRTFYGDSVK	GRTAGTFDS	GP_Gibbs	230 pM	6/6
GFNLNSYGIS	VIYSDGRRTFYGDSVK	GWTAGTFDS	GPLM_Gibbs	no signal	0/6
GTELNSYGIS	VIYSDGRRTSYADSVK	DRPMGTFDS	Ctrl	no signal	0/6
GFDLNSYEIS	VIFSGGRRTPYGDSVK	GRAAGWFNS	Rand	no signal	0/6
GKLLDEYGIS	VIYADGMRMVYAPSVK	GNLTDTLLV	En_Gibbs	no signal	0/6
GFELNSYGIS	VIYSDGQRTFYGDSVK	GRTAGTFDS	GPLM_Gibbs	6.1 nM	6/6
GFTLNSYGIS	VIYSDGRRTFYGDSVK	GRAAGTIDS	Ctrl	no signal	0/6
GFTLNSYGIS	VIYSDGRRTFYHDSVK	GRAAGAFDS	Ctrl	no signal	0/6
GFNLNSYGIS	VIYSDGRRTFYGDSVK	GHEAGTFDS	GP_Gen	no signal	0/6
GFDLNEYGIS	VIYADGRRTFYTDSVK	GTNAGTFDV	En_HC	25 pM	6/6
GFTLNQYGIS	VIYSDGRRTMYSDSVK	GRAAGTFDS	GP_HC	5.2 nM	6/6
GKKLDEYGIS	VIYADGKRKFYSNSVK	GGMAGGLTV	En_Gibbs	no signal	0/6
GFVLASYGIS	VIYSDGRRTFYGDSVK	GDAAGTFDS	Ctrl	230 nM	1/6
GFDLNEYGIS	VIYADGRRTFYKDSVK	GEAAGTFDI	En_HC	190 pM	6/6
GFDLDEYGIS	VIYADGRRTFYADSVK	GEVAGTFTS	En_HC	560 pM	6/6
GFQLDEYGIS	VIYADGKRQYYAQKVK	GYNSTDMTV	En_Gibbs	no signal	0/6
GFDLQEYGIS	VIYADGSRTAYNQNVK	GLTLDSYVV	En_Gibbs	no signal	0/6
GFDLNEYGIS	VIYADGRRTFYTDSVK	GENAGTFDS	En_HC	no signal	0/6
GFSLNSYGIS	VIYSDGRRAFYGDSVK	GQAAGTFDS	GPLM_Gen	1.7 nM	6/6
GFDLNEYGIS	VIYADGRRTFYADSVK	GQTAGTFDL	En_HC	340 pM	6/6
GFDIEEYGIS	VIYADGRRKAYADSVK	GIDVYGKDV	En_Gibbs	no signal	0/6
GFLLNSYGIS	VIYSDGRRTFYGDSVK	GKEAGTFDT	GP_Gibbs	4.4 nM	6/6
GFNLNEYGIS	VIYSDGRRTFYGDQVK	GRTAGTFDS	GP_Gen	790 pM	6/6

A selection of 11 entries from above:

{"CDR-H1": "GFLLNSYGIS", "CDR-H2": "VIYSDGRRTFYGDSVK", "CDR-H3": "GKEAGTFDT", "group": "GP_Gibbs", "Kd": "4.4 nM", "replicates with signal": "6/6"}
{"CDR-H1": "GFTLNSYGIS", "CDR-H2": "VIYSDGRRTFYGDSVK", "CDR-H3": "GRAAGTIDS", "group": "Ctrl", "Kd": "no signal", "replicates with signal": "0/6"}
{"CDR-H1": "GFELNSYGIS", "CDR-H2": "VIYSDGKRTFYGDSVK", "CDR-H3": "GKAAGTFDV", "group": "GP_Gibbs", "Kd": "1.6 nM", "replicates with signal": "6/6"}
{"CDR-H1": "GFNLNEYGIS", "CDR-H2": "VIYSDGRRTFYGDQVK", "CDR-H3": "GRTAGTFDS", "group": "GP_Gen", "Kd": "790 pM", "replicates with signal": "6/6"}
{"CDR-H1": "GFDLLEYGIS", "CDR-H2": "VIYADGMRVAYAKDVK", "CDR-H3": "GMFGIFTVD", "group": "En_Gibbs", "Kd": "no signal", "replicates with signal": "0/6"}
{"CDR-H1": "GFTLNQYGIS", "CDR-H2": "VIYSDGIRTFYGDSVK", "CDR-H3": "GRAAGTFDS", "group": "Ctrl", "Kd": "4.1 nM", "replicates with signal": "6/6"}
{"CDR-H1": "GFTLNDYGIS", "CDR-H2": "VIYSDGRRTFYGDSVK", "CDR-H3": "GRYAGTFIS", "group": "GPLM_HC", "Kd": "no signal", "replicates with signal": "0/6"}
{"CDR-H1": "GFSLNSYGIS", "CDR-H2": "VIYSDGRRAFYGDSVK", "CDR-H3": "GQAAGTFDS", "group": "GPLM_Gen", "Kd": "1.7 nM", "replicates with signal": "6/6"}
{"CDR-H1": "GFDFNSYGIS", "CDR-H2": "VIYSDGRRTFYGDSNK", "CDR-H3": "GRAAGWFNS", "group": "Rand", "Kd": "no signal", "replicates with signal": "0/6"}
{"CDR-H1": "GKLLDEYGIS", "CDR-H2": "VIYADGMRMVYAPSVK", "CDR-H3": "GNLTDTLLV", "group": "En_Gibbs", "Kd": "no signal", "replicates with signal": "0/6"}
{"CDR-H1": "GFTLNQYGIS", "CDR-H2": "VIYEHGTRTFYSDSVK", "CDR-H3": "GRIAGFFDS", "group": "Rand", "Kd": "no signal", "replicates with signal": "0/6"}

The parent sequence was in this pool as ten entries: three were never detected, three once, and four in most replicates, with averages from 2.2 nM to 240 nM.
The range of this assay differs from that of the first round, and the authors advise against merging the two.
As a blank, each scFv also met three strains without target: over all heavy chain designs, 1% of these pairings were detected, typically at 120 nM and seldom below 7.0 nM.
In the paper, a design with two or fewer of six values counts as a poor binder.

Reference: Li et al. 2023, doi:10.1038/s41467-023-39022-2. File: FLAb, binding data.